Earlier results on 1 compound are cited in paper PMC10694493 (Cell Reports Methods, 2023).

The conditions of this series: cited from earlier work.

As to `CSCC[C@H](NC(=O)[C@H](CC(=O)O)NC(=O)[C@H](CO)NC(=O)[C@@H](NC(=O)[C@H](CCC(=O)O)NC(=O)CNC(=O)[C@H](CC(C)C)NC(=O)[C@H](CO)NC(=O)[C@H](Cc1c[nH]c2ccccc12)NC(=O)[C@H](CO)NC(C)=O)C(C)C)C(=O)N[C@@H](C)C(=O)N[C@@H](C)C(=O)N[C@H](C(=O)N[C@@H](CCC(=O)O)C(=O)N[C@@H](C)C(=O)N[C@@H](C)C(=O)N[C@@H](CCC(=O)O)C(=O)N[C@@H](CC(C)C)C(=O)N[C@@H](CCC(=O)O)C(=O)N[C@@H](CCSC)C(=O)N[C@H](C(=O)N[C@@H](CCCNC(=N)N)C(=O)N[C@@H](CCC(N)=O)C(=O)N[C@H](C(=O)N[C@@H](CC(C)C)C(=O)N[C@@H](Cc1c[nH]cn1)C(=O)N[C@@H](C)C(N)=O)C(C)C)[C@@H](C)O)C(C)C` [P414], the membrane binding activity entry is “no membrane binding activity”.
